Amino acid sequences for entries named in this document (tags omitted). Residues count along the entry.
UniProt Q14416, 19-872: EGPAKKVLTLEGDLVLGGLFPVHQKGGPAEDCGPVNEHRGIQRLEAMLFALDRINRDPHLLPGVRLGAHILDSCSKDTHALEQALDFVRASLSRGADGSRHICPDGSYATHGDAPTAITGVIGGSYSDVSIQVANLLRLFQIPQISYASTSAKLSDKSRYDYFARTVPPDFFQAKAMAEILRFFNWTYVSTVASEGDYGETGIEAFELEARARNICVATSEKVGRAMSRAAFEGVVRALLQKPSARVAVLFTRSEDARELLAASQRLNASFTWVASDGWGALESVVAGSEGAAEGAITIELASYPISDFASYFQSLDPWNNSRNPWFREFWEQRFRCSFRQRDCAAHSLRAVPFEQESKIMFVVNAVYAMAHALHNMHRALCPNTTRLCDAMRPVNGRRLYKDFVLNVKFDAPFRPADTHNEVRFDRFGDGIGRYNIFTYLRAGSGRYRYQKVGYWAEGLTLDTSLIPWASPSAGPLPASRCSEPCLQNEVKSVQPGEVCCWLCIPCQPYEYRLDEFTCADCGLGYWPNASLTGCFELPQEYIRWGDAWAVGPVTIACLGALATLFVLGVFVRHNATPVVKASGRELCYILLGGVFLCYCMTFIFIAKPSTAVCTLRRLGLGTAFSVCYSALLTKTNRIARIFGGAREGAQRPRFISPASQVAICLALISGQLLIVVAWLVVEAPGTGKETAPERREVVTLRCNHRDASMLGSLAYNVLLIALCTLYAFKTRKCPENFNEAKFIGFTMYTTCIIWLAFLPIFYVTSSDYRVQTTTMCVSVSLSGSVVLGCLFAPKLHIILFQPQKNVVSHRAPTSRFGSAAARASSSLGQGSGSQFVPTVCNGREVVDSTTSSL

In patent US9278960B2, “Quinoline carboxamide and quinoline carbonitrile derivatives as mGluR2-negative allosteric modulators, compositions, and their use” (Merck Sharp & Dohme Corp., priority 2011, dated 2016):

Molecular target: human mGluR2 (Homo sapiens (Human), UniProt Q14416)
Experiment: FLIPR Ca2+ mobilization antagonist assay in CHO dhfr- cells expressing recombinant human mGluR2 and Gα16
Format: cell-based
Conditions: antagonist response after addition of 2,500 nM glutamate, Fluo-4 AM, FLIPR384

IC50	Compound
237 nM	Cn1cc(-c2cc(C(N)=O)nc3cc(CN4CCOCC4(C)C)ccc23)cn1 [Example 4-57, 7-[(3,3-dimethylmorpholin-4-yl)methyl]-4-(1-methyl-1H-pyrazol-4-yl)quinoline-2-carboxamide]
21 nM	COc1ncccc1Cc1ccc2c(-c3cnn(C)c3)cc(C(N)=O)nc2c1F [Example 7-30, 8-fluoro-7-[(2-methoxypyridin-3-yl)methyl]-4-(1-methyl-1H-pyrazol-4-yl)quinoline-2-carboxamide]
235 nM	NC(=O)c1cc(-c2ccc(F)cc2)c2ccc(CN3CCNCC3C(F)(F)F)cc2n1 (centres unmarked) [Example 4-89, 4-(4-fluorophenyl)-7-{[2-(trifluoromethyl)piperazin-1-yl]methyl}quinoline-2-carboxamide]
18 nM	Cn1cc(-c2cc(C(N)=O)nc3cc(CN4CCSC(C(F)(F)F)C4)ccc23)cn1 (centres unmarked) [Example 4-119, 4-(1-methyl-1H-pyrazol-4-yl)-7-{[2-(trifluoromethyl)thio-morpholin-4-yl]methyl}quinoline-2-carboxamide]
13 nM	NC(=O)c1cc(-c2ccc(F)cc2)c2ccc(CN3C(=O)CCC3=O)c(F)c2n1 [Example 7-13, 7-[(2,5-dioxopyrrolidin-1-yl)methyl]-8-fluoro-4-(4-fluorophenyl)quinoline-2-carboxamide]
13 nM	COc1ccc(-c2cc(C(N)=O)nc3cc(CCc4ccc(C#N)nc4)ccc23)c(F)c1 [Example 8-7, 7-[2-(6-Cyanopyridin-3-yl)ethyl]-4-(2-fluoro-4-methoxyphenyl)quinoline-2-carboxamide]
17 nM	CCC(O)(c1cn(Cc2ccc3c(-c4ccc(F)cc4)cc(C(N)=O)nc3c2F)cn1)C(F)(F)F (centres unmarked) [Example 7-24, 8-fluoro-4-(4-fluorophenyl)-7-({4-[1-hydroxy-1-(trifluoromethyl)propyl]-1H-imidazol-1-yl}methyl)quinoline-2-carboxamide]
145 nM	Cn1cc(-c2cc(C#N)nc3cc(Cc4ccnc(C(F)(F)F)c4)ccc23)cn1 [Example 6-4, 4-(1-methyl-1H-pyrazol-4-yl)-7-{[2-(trifluoromethyl)pyridin-4-yl]methyl} quinoline-2-carbonitrile]
52 nM	COc1cc(C)c(-c2cc(C(N)=O)nc3cc(CCc4cnc(C)nc4)ccc23)c(C)c1 [Example 8-53, 4-(4-methoxy-2,6-dimethylphenyl)-7-[2-(2-methylpyrimidin-5-yl)ethyl]quinoline-2-carboxamide]
11 nM	COc1ccc(-c2cc(C(N)=O)nc3cc(C(O)Cc4ccc(Cl)nc4)ccc23)cc1 (centres unmarked) [Example 8-27, 7-[2-(6-chloropyridin-3-yl)-1-hydroxyethyl]-4-(4-methoxyphenyl) quinoline-2-carboxamide]
24 nM	CC1CN(Cc2ccc3c(-c4ccc(F)cc4)cc(C(N)=O)nc3c2)CC(C(F)(F)F)N1 (centres unmarked) [Example 4-113, 4-(4-fluorophenyl)-7-{[3-methyl-5-(trifluoromethyl)piperazin-1-yl]methyl}quinoline-2-carboxamide]
18 nM	COc1cc(Cc2ccc3c(-c4ccc(F)cc4)cc(C(N)=O)nc3c2)ccn1 [Example 6-14, 4-(4-fluorophenyl)-7-[(2-methoxypyridin-4-yl)methyl] quinoline-2-carboxamide]
46 nM	Cn1cc(-c2cc(C(N)=O)nc3cc(CN4CCC(F)(F)CC4)ccc23)cn1 [Example 4-69, 7-[(4,4-difluoropiperidin-1-yl)methyl]-4-(1-methyl-1H-pyrazol-4-yl)quinoline-2-carboxamide]
8 nM	C[C@@H]1CO[C@@H](C(F)(F)F)CN1Cc1ccc2c(-c3cnn(C)c3)cc(C(N)=O)nc2c1 [Example 4-90, 4-(1-methyl-1H-pyrazol-4-yl)-7-{[(2R,5R)-5-methyl-2-(trifluoromethyl)morpholin-4-yl]methyl}quinoline-2-carboxamide]
90 nM	NC(=O)c1cc(-c2ccc(F)cc2)c2ccc(CN3CCNC(C4CC4)C3)cc2n1 (centres unmarked) [Example 4-110, 7-[(3-cyclopropylpiperazin-1-yl)methyl]-4-(4-fluorophenyl)quino-line-2-carboxamide]
166 nM	C[C@@H]1CN(Cc2ccc3c(-c4cnn(C)c4)cc(C(N)=O)nc3c2)CCO1 [Example 4-61, 7-{[(2R)-2-methylmorpholin-4-yl]methyl}-4-(1-methyl-1H-pyrazol-4-yl)quinoline-2-carboxamide]
272 nM	Cc1c(-c2cc(C(N)=O)nc3cc(CN4C[C@@H](C)O[C@@H](C(F)(F)F)C4)ccc23)cnn1C [Example 4-133, 4-(1,5-dimethyl-1H-pyrazol-4-yl)-7-{[(2R,6R)-2-methyl-6-(trifluoromethyl)morpholin-4-yl]methyl}quinoline-2-carboxamide]
159 nM	NC(=O)c1cc(-c2cnn(CC(F)(F)F)c2)c2ccc(CN3CCOC(C(F)(F)F)C3)cc2n1 (centres unmarked) [Example 4-79, 4-[1-(2,2,2-trifluoroethyl)-1H-pyrazol-4-yl]-7-{[2-(trifluoromethyl)morpholin-4-yl]methyl}quinoline-2-carboxamide]
52 nM	Cn1cc(-c2cc(C(N)=O)nc3cc(CN4CCOC(CC(F)(F)F)C4)ccc23)cn1 (centres unmarked) [Example 4-98, 4-(1-methyl-1H-pyrazol-4-yl)-7-{[2-(2,2,2-trifluoroethyl)morph-olin-4-yl]methyl}quinoline-2-carboxamide]
66 nM	CCN1CCN(Cc2ccc3c(-c4ccc(F)cc4)cc(C(N)=O)nc3c2)CC1C(F)(F)F (centres unmarked) [Example 4-93, 7-{[4-ethyl-3-(trifluoromethyl)piperazin-1-yl]methyl}-4-(4-fluorophenyl)quino-line-2-carboxamide]
21 nM	Cc1ccc(CC(C)c2ccc3c(-c4ccc(F)cc4)cc(C(N)=O)nc3c2)cn1 (centres unmarked) [Example 8-25, 4-(4-fluorophenyl)-7-[1-methyl-2-(6-methylpyridin-3-yl)ethyl]quinoline-2-carboxamide]
15 nM	CCn1cc(-c2cc(C(N)=O)nc3cc(CN4CCOC(C(F)(F)F)C4)ccc23)cn1 (centres unmarked) [Example 4-77, 4-(1-ethyl-1H-pyrazol-4-yl)-7-{[2-(trifluoromethyl)morpholin-4-yl]methyl}quinoline-2-carboxamide]
21 nM	CC(Cc1cccnc1)c1ccc2c(-c3ccc(F)cc3)cc(C(N)=O)nc2c1 (centres unmarked) [Example 8-23, 4-(4-fluorophenyl)-7-(1-methyl-2-pyridin-3-ylethyl)quinoline-2-carboxamide]

Further lines, the compound ahead of its results:

Compound	IC50
CCOC(=O)c1cn(Cc2ccc3c(-c4ccc(F)cc4)cc(C(N)=O)nc3c2)nc1C(F)(F)F [Example 3-22, ethyl 1-{[2-carbamoyl-4-(4-fluorophenyl)quin-olin-7-yl]methyl}-3-(trifluoromethyl)-1H-pyrazole-4-carboxylate]	47 nM
CN(C)C1CCN(Cc2ccc3c(-c4ccc(F)cc4)cc(C(N)=O)nc3c2)C1 (centres unmarked) [Example 4-34, 7-{[3-(dimethylamino)pyrrolidin-1-yl]methyl}-4-(4-fluorophenyl)quino-line-2-carboxamide]	330 nM
NC(=O)c1cc(-c2ccc(F)cc2)c2ccc(CN3CC(O)CC3C(N)=O)cc2n1 (centres unmarked) [Example 4-36, 7-[(2-carbamoyl-4-hydroxypyrrolidin-1-yl)methyl]-4-(4-fluorophenyl)quino-line-2-carboxamide]	274 nM
NC(=O)c1cc(-c2ccc(F)cc2)c2ccc(CN3CCCC(C(F)(F)F)C3)cc2n1 (centres unmarked) [Example 4-44, 4-(4-fluorophenyl)-7-{[3-(trifluoromethyl)piperidin-1-yl]methyl}quinoline-2-carboxamide]	59 nM
COCCN(C)Cc1ccc2c(-c3ccc(F)cc3)cc(C(N)=O)nc2c1 [Example 4-30, 4-(4-fluorophenyl)-7-{[(2-methoxyethyl)(meth-yl)amino]methyl} quinoline-2-carboxamide]	241 nM
COC(=O)[C@@H]1CCCN1Cc1ccc2c(-c3ccc(F)cc3)cc(C(N)=O)nc2c1 [Example 4-23, methyl 1-{[2-carbamoyl-4-(4-fluorophenyl)quino-lin-7-yl]methyl}-L-prolinate]	137 nM
CC(C)c1nccn1Cc1ccc2c(-c3ccc(F)cc3)cc(C(N)=O)nc2c1 [Example 3-30, 4-(4-fluorophenyl)-7-{[2-(1-methylethyl)-1H-imidazol-1-yl]methyl}quinoline-2-carboxamide]	31 nM
NC(=O)c1cc(-c2ccc(F)cc2)c2ccc(CN3CCCS3(=O)=O)cc2n1 [Example 2-34, 7-[(1,1-dioxidoisothiazolidin-2-yl)methyl]-4-(4-fluorophenyl)quinoline-2-carboxamide]	105 nM
N#Cc1cc(-c2ccc(F)cc2)c2ccc(CN3C(=O)CCC3=O)cc2n1 [Example 2-9, 7-[(2,5-dioxopyrrolidin-1-yl)methyl]-4-(4-fluorophenyl)quinoline-2-carbonitrile]	416 nM
CO[C@H]1CCN(Cc2ccc3c(-c4ccc(F)cc4)cc(C(N)=O)nc3c2)C1 [Example 4-33, 4-(4-fluorophenyl)-7-{[(3S)-3-methoxypyrrolidin-1-yl]methyl}quinoline-2-carboxamide]	138 nM
NC(=O)c1cc(-c2ccc(F)cc2Cl)c2ccc(CN3C(=O)CCC3=O)cc2n1 [Example 2-24, 4-(2-chloro-4-fluorophenyl)-7-[(2,5-dioxopyrrolidin-1-yl)methyl]quinoline-2-carboxamide]	12 nM
NC(=O)c1cc(-c2c(F)cc(Cl)cc2F)c2ccccc2n1 [Example 1-9, 4-(2,6-dichloro-4-fluorophenyl)quinoline-2-carboxamide]	171 nM
CC(C)(C)OC(=O)NCc1ccc2c(-c3ccc(F)cc3)cc(C(N)=O)nc2c1 [Example 2-32, tert-butyl {[2-carbamoyl-4-(4-fluorophenyl)quinolin-7-yl]methyl}carbamate]	129 nM
NC(=O)c1cc(-c2ccc(F)cc2)c2ccc(CN3CCC(O)CC3)cc2n1 [Example 4-40, 4-(4-fluorophenyl)-7-[(4-hydroxypiperidin-1-yl)methyl]quinoline-2-carboxamide]	392 nM
CN1C(=O)N(Cc2ccc3c(-c4ccc(F)cc4)cc(C(N)=O)nc3c2)C(=O)C1(C)C [Example 2-15, 4-(4-fluorophenyl)-7-[(3,4,4-trimethyl-2,5-dioxoimidazolidin-1-yl)methyl]quinoline-2-carboxamide]	64 nM
